Assay results reported in patent publication EP1750770B1, “USE OF ORGANO-SILICON COMPOUNDS FOR CO[…] TISSUES” (Exsymol, priority 2004, dated 2005).

Settings: in vivo

## salicylate de monométhylsilanetriol [SalSi-3OH]
  résorption du produit: complète une heure après l'injection
